Source: ChEMBL document CHEMBL5252580, “Ionization and lipophilicity in nonpolar media mimicking the cell membrane interior” (Bioorg Med Chem, 2023)

Assay: Lipophilicity, log P of the compound in octanol/water system by potentiometric titration method
Format: physicochemical

CC(C)Cc1ccc(C(C)C(=O)O)cc1 (stereo unspecified) [IBUPROFEN]
logP: 4
